# scFv variants of Ab-14 (light chain) against a SARS-CoV-2 spike peptide

From the AlphaSeq antibody data of Li et al. 2023 (doi:10.1038/s41467-023-39022-2), copy in the FLAb collection.

All variants were tested on one target, the spike HR2 peptide PDVDLGDISGINAS (SARS-CoV-2).

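Designed CDR sequences, proposed from the first random library and measured here. Group labels follow the data file (Ctrl: baseline library sampled from a position-specific scoring matrix, with some repeated check sequences; En: ensemble of fine-tuned language models; GP: Gaussian process model; HC: hill climbing; Gen: genetic algorithm; Gibbs: Gibbs sampling; a sequence that several methods proposed may carry one label only). The scFvs were displayed on barcoded MATa yeast, the peptide on MATalpha yeast. After mating in shaken culture at 30 °C for 16 h, diploids were selected and their barcode pairs sequenced. Read counts were normalised to the haploid input and turned into Kd by a linear fit to BCL2-family pairs of known affinity, for each replicate. There are six technical replicates.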

Ab-14 is the parent antibody, in scFv form: VH, then a 15-residue (Gly4Ser)3 linker, then VL. The heavy chain is unchanged in all variants.
VH: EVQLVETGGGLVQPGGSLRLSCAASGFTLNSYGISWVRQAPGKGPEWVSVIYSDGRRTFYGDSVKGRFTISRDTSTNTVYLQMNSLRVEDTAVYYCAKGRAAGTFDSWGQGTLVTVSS
VL: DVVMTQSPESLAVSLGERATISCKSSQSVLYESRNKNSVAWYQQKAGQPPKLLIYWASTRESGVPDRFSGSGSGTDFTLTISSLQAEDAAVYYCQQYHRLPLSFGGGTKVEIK

Variants are written as CDR1, CDR2 and CDR3 of the light chain (limits as in the source). Parent: KSSQSVLYESRNKNSVA, WASTRES, QQYHRLPLS. Values are log10 of the apparent Kd in nM; lower means stronger binding. The mean shown is taken over the replicates in which the pair was detected. A pair that was not seen in any replicate is written "nd"; this usually means weak binding, but a binder can also be missed. Order: sorted from the lowest average up, undetected variants last. Of ten entries with the parent sequence, four were seen in most replicates (averages 0.34 to 2.37), three in one and three in none, so single entries are noisy. Values of this round are not directly comparable with the first-round values of the same sequences. Three control strains display no target. For all light chain designs, 4% of the pairings with them gave a signal, with a median of 2.64 and one signal in twenty below 1.59, so weak values seen in few replicates may be background. The authors' rule: three or more of the six replicates give a measured affinity, fewer mean a poor binder.

| CDR-L1 | CDR-L2 | CDR-L3 | group | mean, log10 nM | replicates with signal |
|---|---|---|---|---|---|
| KLEQSDEYESRNKNSVA | NASTRES | QQYHRLPLS | GP_Gen | -0.47 | 6/6 |
| KVSQMQDYESRNKNNVA | EASTRMS | QQYHRLPLS | GP_Gibbs | -0.44 | 6/6 |
| KLSQSVLYESRNKNNVA | SASTRCS | QQYHRLPLS | GP_Gen | -0.39 | 6/6 |
| SVTRYTDENGLKMNSVA | GAAERMT | QQYHRLPLT | En_Gibbs | -0.37 | 6/6 |
| KMYQSVLYESRNKNSVA | NASTRES | QQYHRLPLS | GP_Gen | -0.35 | 6/6 |
| KLYQSDLYESRNKNSVA | NASQRES | QQYHRLPLS | GP_Gen | -0.32 | 6/6 |
| KFSQSVLYESRTKNSVA | NASTRES | QDYHRLPLS | GP_HC | -0.32 | 6/6 |
| KLRMSTLYESRNKNSVA | GASTRES | QQYHRLPLS | GP_HC | -0.20 | 6/6 |
| KLSMSQLYEWRNMNSVA | NASTREE | QQYHRLPLS | GP_Gibbs | -0.17 | 6/6 |
| KLSQSVLYESRNKNSVA | EASHRES | QQYHRLPLS | GP_Gen | -0.17 | 6/6 |
| ALSQSELYESRNWNSVA | NASTREK | QQYHRLPLS | GP_Gibbs | -0.08 | 6/6 |
| KIEQSWLYESRNKNSVA | NASTRES | QQYHRLPLS | GP_Gen | -0.03 | 6/6 |
| KLSQSFPYESRNKMSVA | NADTREE | QQYHRLPLS | GP_Gibbs | -0.02 | 6/6 |
| KLMQSVPYESRNKNSVA | NASQRES | QQYHRLPLS | GP_Gen | -0.02 | 6/6 |
| KYQQSELTESRNKNSVA | NASTRES | QDYHQLPLS | GP_Gibbs | -0.01 | 6/6 |
| ALSQSMDMTSRNKNSVA | DLDTREN | QQYHRLPLS | En_HC | 0.02 | 6/6 |
| KLSQSVLYESRNKNSVA | HASTRVS | QQYHRLPLS | GP_Gen | 0.05 | 6/6 |
| KSSWSVLPESRNKNSVA | DASTRSS | QQYHRLPLS | GP_HC | 0.06 | 6/6 |
| QIDSFYQHGTDQNQAMA | DVSVRDQ | QQYSRLPLS | En_Gibbs | 0.17 | 6/6 |
| MAYGGDMMESVARNSVA | NAETRAD | QDYHRLPLS | En_HC | 0.19 | 6/6 |
| KLSQSYLYESRNKNSVA | SASTRES | QQYHRLPLS | GP_Gen | 0.24 | 6/6 |
| KISMLQRFQQNAKSNIA | EMNRREE | QQYHRLPLS | En_HC | 0.24 | 6/6 |
| KLSFLGNYEQRNCNSVA | SASTRCS | QQYHRLPLS | GP_Gibbs | 0.27 | 6/6 |
| KFSQSVLYESRNKNSVA | HASTRVS | QQYSRLPLY | Ctrl | 0.28 | 6/6 |
| QVQYHPGESLRHASSIA | DVNIKVM | QQYSRLPLS | En_Gibbs | 0.31 | 6/6 |
| TISQVMNTLTRHGNNVA | DLAERED | QQYYRLPLS | En_Gen | 0.32 | 6/6 |
| KMSQSWLYESRNSNSVA | EASTRLS | QDYHRLPLS | GP_Gibbs | 0.35 | 6/6 |
| KSSISYLYESLNKNSVA | EASQRES | QQYHRLPLS | GP_HC | 0.37 | 6/6 |
| NITQQGFASGDQRNNVA | NVETLQH | QQYAHLPLL | En_Gibbs | 0.41 | 6/6 |
| HINTALKTVDDHYSNVA | EQRLTSI | QQYFRLPLS | En_Gibbs | 0.41 | 6/6 |
| SLMQFGGYESNNHNSIA | DLRTRES | QQYHRLPLS | En_HC | 0.42 | 6/6 |
| KLDGSCQYESRTKNSVA | NASTRES | QQYHRLPLS | GP_Gibbs | 0.48 | 6/6 |
| KSSQSVLLESRNKNSVA | YASTRES | QQYMRLPLS | Ctrl | 0.53 | 6/6 |
| KSHQSVLYESRNANSVA | RASTRES | QQYHRLPLS | Ctrl | 0.53 | 6/6 |
| QTTAFYQHGHDQNQAMA | DVTMRDQ | QQYERLPLS | En_Gibbs | 0.54 | 6/6 |
| KSSPFVIYESRNKNSVA | HASTRES | QQYHILPLS | Ctrl | 0.67 | 6/6 |
| QLYAVQDMTSKNKNNVA | EQSTREN | QQYHRLPLS | En_HC | 0.75 | 6/6 |
| RMQEDLQLGTNIGNNIA | EHQTVFD | QQYAHLPLQ | En_Gibbs | 0.80 | 6/6 |
| NVGQSMDGEQRNKNSVA | HQSTRED | QHYHRLPLS | En_HC | 0.81 | 6/6 |
| GVDHTMESGKQAPNSIA | NAEQLQI | QQYQRLPLS | En_Gibbs | 0.84 | 6/6 |
| IISQVDAYSSRNKNSIA | DQSTRGS | QQYDRLPLS | En_HC | 0.92 | 6/6 |
| KSSQSDLYESRNKNSVA | WASTRES | FQYHRLPLS | Ctrl | 0.96 | 6/6 |
| KTSQKVLYESRNKNSVA | YASTRES | QQYHRLPLS | Ctrl | 0.97 | 5/6 |
| KISQMSTIESITHNSVA | QTSKRES | QQYDRLPLS | En_HC | 0.99 | 6/6 |
| MMSQVTGSGTRHRNNVA | QTSMREI | QQYDRLPLI | En_Gen | 1.00 | 6/6 |
| KLRSMTLTEGYFKNSVA | QASTREN | QSYHRLPLS | En_HC | 1.09 | 6/6 |
| HLYTENYTQKNRTNAIA | DARERVQ | QQYSRLPIM | En_Gibbs | 1.10 | 6/6 |
| KLSQEVLYESRNKNSVA | GASTRES | QQYHRLPLS | GP_Gen | 1.11 | 6/6 |
| KVSGFMRGLMMRKDSIA | DNETRNS | QQYDRLPLS | En_Gen | 1.22 | 6/6 |
| KIGMTLNTLLHQKNNVA | DLVEREN | QQYYRLPLS | En_Gen | 1.32 | 6/6 |
| VSSQSVLYESRNKNSVA | WASTREA | QQYHRLPLS | Ctrl | 1.33 | 1/6 |
| KSSQWCLYESRNKNAVA | WASTRES | QQYHRLPLS | Ctrl | 1.44 | 2/6 |
| KLMQSWLYESRNKNSVA | GASTRES | QQYHRLPLS | GP_Gen | 1.59 | 6/6 |
| KLIQSVAMSSRNKDSIA | DNSTREY | QQYDRLPLS | En_HC | 1.62 | 6/6 |
| MISQLMNLGQFAINSVA | QASLRNA | QQYDRLPLT | En_Gen | 1.88 | 5/6 |
| MISQLYNMGQFAINSVA | QASERSN | QQYDRLPLM | En_Gen | 2.02 | 6/6 |
| KSDQSVLYESSNKNSVA | WASTRPS | QQYHRLPLS | Ctrl | 2.08 | 6/6 |
| MLSEVLHMLGVAKNSIA | DLVLRAN | QQYHRLPLG | En_Gen | 2.18 | 1/6 |
| KSRQSVLYESRNKNSVA | MASTRES | QQYHRLPLS | Ctrl | 2.23 | 6/6 |
| KSSQPVLYESANCNSVA | WASTRES | QQYHMLPLS | Ctrl | 2.26 | 2/6 |
| KKQQSVLYESRNKNSVA | GASTRES | QQYHRLPLY | Ctrl | 2.47 | 6/6 |
| HLLQTVMYGSTRKNSVA | HAQTREN | QQYHRLPLA | En_HC | 2.59 | 3/6 |
| TLYGLSNSMSINKDSVA | EMTTREE | QQYDRLPLA | En_Gen | 2.61 | 1/6 |
| KSSQSVLNESRNKNSVA | WASHRES | QQYHRLLLS | Ctrl | 2.78 | 2/6 |
| TIGSATLEESRNKNSVA | EMSLREN | QSYNRLPLS | En_HC | 2.83 | 3/6 |
| KLREVQHVETKQKNNVA | DNDTRES | QDYYRLPLS | En_HC | 3.14 | 1/6 |
| KLSQSVLYESRNKNEVA | WASTRES | QQYHRLPDS | Ctrl | nd | 0/6 |
| RLNVFQNAITQQNNNIA | QAEQKVH | QQYMRLPLY | En_Gibbs | nd | 0/6 |
| IVSQLMIWGMHVKNSIA | EAEIRLN | QQYDRLPLI | En_Gen | nd | 0/6 |
| TISQSTYWESFNKNSVA | QTSTRAE | QDYDRLPLS | En_HC | nd | 0/6 |
| KSSQMVLYESFNKNSVA | WASTRES | QQYHRLPLS | Ctrl | nd | 0/6 |
| KFSQSVLCESRNKNSVA | TASQRES | FQYHRLPLS | Ctrl | nd | 0/6 |

From the list, the first 6 with no signal in any replicate:

| CDR-L1 | CDR-L2 | CDR-L3 | group | mean, log10 nM | replicates with signal |
|---|---|---|---|---|---|
| KLSQSVLYESRNKNEVA | WASTRES | QQYHRLPDS | Ctrl | nd | 0/6 |
| RLNVFQNAITQQNNNIA | QAEQKVH | QQYMRLPLY | En_Gibbs | nd | 0/6 |
| IVSQLMIWGMHVKNSIA | EAEIRLN | QQYDRLPLI | En_Gen | nd | 0/6 |
| TISQSTYWESFNKNSVA | QTSTRAE | QDYDRLPLS | En_HC | nd | 0/6 |
| KSSQMVLYESFNKNSVA | WASTRES | QQYHRLPLS | Ctrl | nd | 0/6 |
| KFSQSVLCESRNKNSVA | TASQRES | FQYHRLPLS | Ctrl | nd | 0/6 |